Values of other authors as cited in patent US11578009B2, “Urea-based blend composition and method for the manufacture thereof” (YARA INTERNATIONAL ASA, priority 2018, dated 2023).

Details: WO2017/168288; urea plus phosphate fertilizer; cited from earlier work

## O=S(=O)([O-])[O-].[Mg+2] [MgSO4, magnesium sulphate]
  Concentration of cation source at which stabilizing the urease inhibitor is effective: ≥ 1.25%
